G9a inh: G9a (human) methyltransferase inhibition; Q96KQ7; G9a H3K9 monomethylation, AlphaScreen, 2 h; Potency, µM (top dose mostly 102 µM), for the others: top-dose activity, negative = inhibition, hits mostly inhibitors; 350,000 tested, 8.8% active; note: potency is the fitted concentration of half-maximal effect; % is set by controls: 0 for no effect and ±100 for the full control effect; nearly all actives have a fitted effect of over 75% in size
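AlphaScreen detection with an anti-monomethyl H3K9 antibody quantified product after a 2 h room-temperature reaction containing 500 nM biotinylated H3K9 peptide, 20 µM SAM and 20 nM enzyme, which had been preincubated 15 min with compound.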
LMNA splice mod: LMNA splicing modulation; HeLa LMNA splicing GFP/RFP minigene ratio, 48 h; Potency, µM (top dose mostly 46.1 µM), for inactives: at the highest dose ratio change, negative = inhibition, usual class: inhibitors; 200,000 tested, 0.01% active; active = well fitted inhibition curve with a large enough effect in the signal ratio, with a control signal flat, not every such curve was filed as active; inconclusive = small, poorly fitted or top-dose-only effect, or effect the other way, or a change in a side signal; the % refers to the signal ratio; note: potency is the fitted concentration of half-maximal effect; % is set by controls: 0 for no effect and ±100 for the full control effect
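S3 HeLa stable clones carrying a lamin A-EGFP splicing minigene plus DsRed2 were seeded at 600 cells/well in Opti-MEM with 2% FBS, pin-dosed and incubated 48 h at 37°C. Acumen cytometry (488 nm) gave the GFP/RFP total-intensity ratio.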
Sfp PPTase inh: blocks B. subtilis Sfp PPTase activity; Q9F4F7; Biochemical Sfp PPTase activity, qHTS; Potency, µM, for the others: max response, negative = inhibition, most hits filed as inhibitors; actives 3.5% (n = 310,000); AID 1490; active = well fitted inhibition curve with a large enough effect; inconclusive = small, poorly fitted or top-dose-only effect, or another doubt; inactive = no such curve, though single readings can be large or run the other way;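 also: the enzyme is Sfp with the accession as filed and its product quenches rhodamine fluorescence; potency is read from the fitted curve at half-maximal effect; 0% = enzyme reaction without inhibitor and -100% = no enzyme wells; top concentration of the series not given in the record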
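Step 1, compound plus 15 nM Sfp-PPTase, 15 min, room temperature. Step 2, add rhodamine-CoA (5 uM) and BHQ-2-YbbR (12.5 uM). Step 3, read 525/598 nm fluorescence at 0 and 30 min.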
miR-21 reporter: raises the signal of a miR-21 reporter; Potency, µM (doses to about 38.3 µM), inactives show top-dose reporter change, positive = more light; HeLa miR-21 FLuc reporter, luciferase, 48 h; AID 2288; 340,000 tested, under 10 active; active = well fitted rising curve with a large enough effect; inconclusive = small, poorly fitted or top-dose-only effect; inactive = no such curve, though single readings can be large or run the other way;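 further: % of control where 0% means no effect; miR-21 action dims this reporter so a rising signal means less miR-21 action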
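Compounds were titrated across several concentrations (up to approximately 40 uM) and incubated 48 hours with HeLa miR-21-FLuc reporter cells (miR-21 target sequence downstream of FLuc, endogenous miR-21). Readout was firefly luciferase luminescence after lytic detection reagent.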
JMJD2E inh: JMJD2E (human) inhibition. 230,000 tested, 1.6% active. JMJD2E catalytic domain, FDH-coupled NADH fluorescence (FDH is formaldehyde dehydrogenase). Potency, µM (highest dose often 57.1 µM), for the others: top-dose activity change, negative = inhibition, usual class: inhibitors. B2RXH2; active = well fitted inhibition curve with a large enough effect, not every such curve was filed as active; inconclusive = small, poorly fitted or top-dose-only effect, or another doubt; inactive = no such curve, though single readings can be large or run the other way;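 note: potency is the fitted concentration of half-maximal effect; 0% = wells with enzyme and -100% = buffer wells without enzyme; nearly all actives have a fitted effect of over 50% in size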
ALDH1A1 block: blocks purified human ALDH1A1 activity. P00352. Purified ALDH1A1, NADH fluorescence, propionaldehyde substrate. Potency, µM (titrated, usually from 75.3 µM), for inactives: top-dose activity, negative = inhibition, usual class: inhibitors. 220,000 tested, 7.3% active; active = well fitted inhibition curve with a large enough effect, not every such curve was filed as active; inconclusive = small, poorly fitted or top-dose-only effect, or another doubt; inactive = no such curve, though single readings can be large or run the other way;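 note: potency is the fitted concentration of half-maximal effect; plate controls were no enzyme wells and a reference inhibitor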
An asterisk follows results filed as active; [ ] = another dose, or the depositor's remark. Only some compounds are listed: those with a hit (about 13% of all), similar ones and a draw of the others. Unless noted, calls come from the whole dose curve; as a rule, active = well fitted curve in the direction sought with a large enough effect; inconclusive = small, poorly fitted or top-dose-only effect, or another doubt; inactive = no such curve, though single readings can be large; an effect the other way counts as inactive or inconclusive.

The opening 2 compounds (preview)
For O=C(O/N=C1/CCSc2ccccc21)c1ccccc1 the results were G9a inh -1%[0.501 µM], LMNA splice mod 11%[0.0737 µM], Sfp PPTase inh 79µM*, miR-21 reporter -1%, JMJD2E inh -17% and ALDH1A1 block 19µM*.
COc1ccc(S(=O)(=O)NNc2nc(C)cc(C)n2)cc1Br was read as G9a inh 22µM*.

The list itself (from the top)
For O=C(O/N=C1/CCSc2ccccc21)c1ccccc1 the results were G9a inh -1%[0.501 µM], LMNA splice mod 11%[0.0737 µM], Sfp PPTase inh 79µM*, miR-21 reporter -1%, JMJD2E inh -17% and ALDH1A1 block 19µM*.
COc1ccc(S(=O)(=O)NNc2nc(C)cc(C)n2)cc1Br was read as G9a inh 22µM*.
`COC(=O)c1ccccc1S(=O)(=O)N1CCc2nc(COc3ccccc3)c3c(c2C1)CO[C@@H](C)C3` gave LMNA splice mod -13%[9.22 µM], Sfp PPTase inh -9%, JMJD2E inh 2%[11.4 µM] and ALDH1A1 block -7%[13.5 µM].
Screening O=C(Nc1nnc(S(=O)(=O)N2CCOCC2)s1)c1ccc(F)cc1 returned G9a inh -16%, LMNA splice mod 18%[46 µM], Sfp PPTase inh 23% and miR-21 reporter -16%.
Cc1ccc(C(=O)Nc2nnc(S(=O)(=O)N3CCOCC3)s2)cc1 was read as G9a inh inconclusive, LMNA splice mod 2%[46 µM], Sfp PPTase inh 19% and miR-21 reporter -3%.
`O=C(Nc1nnc(S(=O)(=O)N2CCCC2)s1)c1ccc(F)cc1` gave G9a inh -22%[59 µM], LMNA splice mod inconclusive and miR-21 reporter -71%.
Screening Cc1ccc(C(=O)Nc2nnc(S(=O)(=O)N3CCCCCC3)s2)cc1 returned G9a inh 7.9µM*, LMNA splice mod 2%[46 µM], Sfp PPTase inh 17% and miR-21 reporter -27%.
O=C(Nc1nnc(S(=O)(=O)N2CCCCC2)s1)c1ccc(F)cc1 was read as G9a inh 14µM*, LMNA splice mod -11%[46 µM] and miR-21 reporter 0%.
O=C(Nc1nnc(S(=O)(=O)N2CCN(c3ccc(F)cc3)CC2)s1)c1ccco1 was read as G9a inh 45µM*, Sfp PPTase inh -16% and miR-21 reporter -16%.
`O=C(NCc1ccccc1)c1cnc(N2CCCCC2)c2ccccc12` gave G9a inh 23%[59 µM], LMNA splice mod -4%[46 µM] and miR-21 reporter -36%.
CC1(C)N=C(SCC(=O)Nc2ccccc2)C(c2ccc(Cl)cc2)=N1 was read as G9a inh -6%[59 µM], LMNA splice mod inconclusive, Sfp PPTase inh 12%, miR-21 reporter 16%, JMJD2E inh 0% and ALDH1A1 block -4%.
`Cc1ccc(C2=NC(C)(C)N=C2SCC(=O)Nc2ccc(Cl)cc2)cc1` gave G9a inh -4%, LMNA splice mod -17%, Sfp PPTase inh 2%, miR-21 reporter 7%, JMJD2E inh 2% and ALDH1A1 block 22µM*.
For Cc1ccc(S(=O)(=O)Nc2cccc(Oc3cnccn3)c2)cc1 the results were G9a inh 45%[12.7 µM], Sfp PPTase inh 2%, miR-21 reporter 15%, JMJD2E inh 8% and ALDH1A1 block 7.9µM*.
Screening O=C(O)c1cccnc1SC1CC(=O)N(Cc2ccccc2)C1=O (configuration not stated) returned G9a inh 3%[59 µM], LMNA splice mod 0%, Sfp PPTase inh 18%, miR-21 reporter -5%, JMJD2E inh 2% and ALDH1A1 block -9%.
Screening COc1ccccc1N1C(=O)CC(Sc2ncccc2C(=O)O)C1=O (configuration not stated) returned G9a inh inconclusive, LMNA splice mod 1%, Sfp PPTase inh 18%, miR-21 reporter -5%, JMJD2E inh 0% and ALDH1A1 block 5%.
Screening O=C(O)c1cccnc1SC1CC(=O)N(c2ccc(OC(F)F)cc2)C1=O (configuration not stated) returned G9a inh 45µM*, Sfp PPTase inh 4%, miR-21 reporter -1% and JMJD2E inh -2%.
Screening O=C(O)c1cccnc1SC1CC(=O)N(c2cccc(C(F)(F)F)c2)C1=O (configuration not stated) returned G9a inh 35µM*, LMNA splice mod -9%, Sfp PPTase inh 1%, miR-21 reporter -2%, JMJD2E inh 1% and ALDH1A1 block 13µM*.
COC(=O)c1c(N2C(=O)CC(Sc3ncccc3C(=O)O)C2=O)sc(C)c1C (configuration not stated) was read as Sfp PPTase inh 89µM*, miR-21 reporter 2% and JMJD2E inh inconclusive.
For CSc1cccc(NC(=O)c2ccc(NC3=NC4CS(=O)(=O)CC4S3)cc2)c1 (configuration not stated) the results were G9a inh 0%, Sfp PPTase inh 10% and miR-21 reporter -7%.
For Cc1cc(C(=O)CN2C(=O)C(=O)N(Cc3ccccc3)C2=O)c(C)n1CC1COc2ccccc2O1 (configuration not stated) the results were G9a inh -2%, LMNA splice mod -25%[46 µM], Sfp PPTase inh 6%, miR-21 reporter 16%, JMJD2E inh -1% and ALDH1A1 block 12%.
COc1ccc(-n2c(C)cc(C(=O)CSc3nnc(-c4ccoc4C)n3C)c2C)cc1 was read as G9a inh 50µM*, LMNA splice mod inconclusive, Sfp PPTase inh -5%, miR-21 reporter 14%, JMJD2E inh 1% and ALDH1A1 block -13%.
Cc1cc(C(=O)C(C)Cl)c(C)n1Cc1ccco1 (configuration not stated) was read as G9a inh inconclusive, LMNA splice mod 0%[46 µM], Sfp PPTase inh -8%, miR-21 reporter 6%, JMJD2E inh -19% and ALDH1A1 block 7.1µM*.
Screening Cc1cc(C(=O)COC(=O)c2ccc(CO)cc2)c(C)n1CC1COc2ccccc2O1 (configuration not stated) returned G9a inh 4µM*, LMNA splice mod -3%, Sfp PPTase inh -9%, miR-21 reporter -7%, JMJD2E inh -21% and ALDH1A1 block inconclusive.
For CCc1cccc2c(C(=O)CSc3nnc(-c4ccncc4)n3C)c[nH]c12 the results were G9a inh 32µM*, LMNA splice mod -8%, Sfp PPTase inh inconclusive, miR-21 reporter -6%, JMJD2E inh 0% and ALDH1A1 block inconclusive.
Screening O=C(NC(=S)NC1C2CC3CC(C2)CC1C3)c1ccccc1 (configuration not stated) returned G9a inh inconclusive, Sfp PPTase inh 32% and miR-21 reporter -28%.
For Cc1cc(C)cc(NC(=O)Cn2cc(S(=O)(=O)NC(C)(C)C)c(S(=O)(=O)NC(C)(C)C)c2)c1 the results were G9a inh -28%[59 µM], LMNA splice mod inconclusive and miR-21 reporter 19%.
Screening CCCn1c(NC(=O)CN2C(=O)NC3(CCCCC3)C2=O)nc2ccccc21 returned G9a inh -2%[12.7 µM].
For CCc1cccc(C)c1NC(=O)CCn1c(=O)c2cccn2c2ccccc21 the results were G9a inh -31%[59 µM], LMNA splice mod 0%[46 µM] and miR-21 reporter 1%.

Quoted at random: 2 entries already listed, in no set order.
For CCc1cccc(C)c1NC(=O)CCn1c(=O)c2cccn2c2ccccc21 the results were G9a inh -31%[59 µM], LMNA splice mod 0%[46 µM] and miR-21 reporter 1%.
Cc1cc(C(=O)C(C)Cl)c(C)n1Cc1ccco1 (configuration not stated) was read as G9a inh inconclusive, LMNA splice mod 0%[46 µM], Sfp PPTase inh -8%, miR-21 reporter 6%, JMJD2E inh -19% and ALDH1A1 block 7.1µM*.

Compound activity: PubChem, National Center for Advancing Translational Sciences (NCATS)
